Test results: PMC5091859, “Protein Translation Enzyme lysyl-tRNA Synthetase Presents a New Target for Drug Development against Causative Agents of Loiasis and Schistosomiasis” (PLoS Neglected Tropical Diseases, 2016)

By UniProt entry, the sequences of proteins in these tests, tags left out. Residues count along the entry.
UniProt A0A1I7VQ84, 78-599 V330Q/S346T: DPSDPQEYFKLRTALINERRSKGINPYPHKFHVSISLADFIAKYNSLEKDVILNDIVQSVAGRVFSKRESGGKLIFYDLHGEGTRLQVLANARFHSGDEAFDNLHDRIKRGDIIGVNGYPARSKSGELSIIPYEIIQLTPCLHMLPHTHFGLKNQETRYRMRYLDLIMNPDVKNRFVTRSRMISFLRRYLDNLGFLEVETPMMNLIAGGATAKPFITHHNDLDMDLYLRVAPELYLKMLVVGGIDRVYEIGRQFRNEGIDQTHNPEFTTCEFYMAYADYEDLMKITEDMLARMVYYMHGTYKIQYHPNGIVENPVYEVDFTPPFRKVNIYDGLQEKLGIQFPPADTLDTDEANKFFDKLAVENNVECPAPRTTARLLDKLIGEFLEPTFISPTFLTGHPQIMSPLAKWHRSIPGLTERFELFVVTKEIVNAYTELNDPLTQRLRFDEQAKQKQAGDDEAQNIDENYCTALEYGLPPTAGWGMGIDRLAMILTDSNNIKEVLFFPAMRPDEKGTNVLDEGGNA

Tests used:
[1] = target: T1, Human-like LlKRS V329Q/S346T mutant (Loa loa, UniProt A0A1I7VQ84); assay: biochemical
[2] = target: T1, Human-like LlKRS V329Q/S346T mutant; assay type: binding; settings: 1 mM L-lysine

C[C@H]1CCC[C@H](C[C@H]2Cc3cc(O)cc(O)c3C(=O)O2)O1 [cladosporin]
IC50 [1]: 1370 nM | Thermal shift of human-like LlKRS ([2]; cladosporin 200 μM, KRS 2 μM (hundred fold)): 7.2 °C | Thermal shift of human-like LlKRS ([2]; ligand 20 μM, KRS 2 μM (ten fold)): 5.3 °C

Like-named read-outs stand apart in the source and are kept apart here.
